Earlier results in patent publication US20200309767A1, “HIGH-THROUGHPUT IMAGING-BASED METHODS FOR PREDICTING CELL-TYPE-SPECIFIC TOXICITY OF XENOBIOTICS WITH DIVERSE CHEMICAL STRUCTURES” (priority 2015, published 2020).

How the values were obtained:
human kidney = conditions: known human kidney toxicity flag 1/0; cited from earlier work
liver = conditions: in vivo; cited from earlier work

| SMILES | Nephrotoxic (human kidney) | Hepatotoxic (liver) |
| --- | --- | --- |
| CC(C)Cc1ccc(C(C)C(=O)O)cc1 (stereo not shown) [Ibuprofen] | 1 | – |
| C[C@H]1O[C@H](O[C@H]2[C@H](O)[C@@H](O)[C@@H](O[C@H]3[C@H](O)[C@@H](O)C(O)O[C@@H]3CO)O[C@@H]2CO)[C@H](O)[C@@H](O)[C@@H]1N[C@H]1C=C(CO)[C@@H](O)[C@H](O)[C@H]1O (stereo partly shown) [Acarbose] | 0 | 1 |
| C[C@]12CCC(=O)C=C1CC[C@@H]1[C@@H]2[C@@H](O)C[C@@]2(C)[C@H]1CC[C@]2(O)C(=O)CO [Hydrocortisone] | 0 | – |
